For three compounds, IC50 results are on record in ChEMBL document CHEMBL5352402, “Discovery of novel non-nucleoside inhibitors with high potency and selectivity for DNA methyltransferase 3A” (Eur J Med Chem, 2022).

The structures appear in SMILES notation. pIC50: −log10 of the molar value.

The experiment addresses DNMT3A2/3L complex (Homo sapiens, UniProt Q9Y6K1). Description: Inhibition of N-terminal His-tagged human DNMT3A (623 to 912 residues)/N-terminal GST-tagged human DNMT3L (160 to 387 residues) co-expressed in baculovirus infected Sf9 cells assessed as DNA methylation using DNA oligonucleotide IDT-01 as substrate preincubated for 15 mins followed by substrate addition in presence of [3H]-SAM and measured after 4 hrs by radioactive methylation assay.
As a reminder, the pIC50 is the negative decadic logarithm of the IC50, by convention in mol/L. As for `Cc1oc2ncn(CCN(C)C)c(=O)c2c1C(=O)Nc1ccc(S(N)(=O)=O)nc1`, the pIC50 is 6.12. As for `Cc1oc2ncn(CCN3CCCCC3)c(=O)c2c1C(=O)Nc1ccc(S(N)(=O)=O)nc1`, the pIC50 was 6.15.

For the compound `Cc1oc2ncn(CCN3CCCC3)c(=O)c2c1C(=O)Nc1ccc(S(N)(=O)=O)nc1`, the pIC50 was 6.41.
